Experiments:
Set-up in all cases: scale not given: the % may be the effect or the level left
[1] = target: T1, Acetylcholinesterase (Rattus norvegicus) (UniProt P37136); experiment: Reactivation of 1 mM tabun-inhibited rat brain AchE
T1 sequence (whole entry): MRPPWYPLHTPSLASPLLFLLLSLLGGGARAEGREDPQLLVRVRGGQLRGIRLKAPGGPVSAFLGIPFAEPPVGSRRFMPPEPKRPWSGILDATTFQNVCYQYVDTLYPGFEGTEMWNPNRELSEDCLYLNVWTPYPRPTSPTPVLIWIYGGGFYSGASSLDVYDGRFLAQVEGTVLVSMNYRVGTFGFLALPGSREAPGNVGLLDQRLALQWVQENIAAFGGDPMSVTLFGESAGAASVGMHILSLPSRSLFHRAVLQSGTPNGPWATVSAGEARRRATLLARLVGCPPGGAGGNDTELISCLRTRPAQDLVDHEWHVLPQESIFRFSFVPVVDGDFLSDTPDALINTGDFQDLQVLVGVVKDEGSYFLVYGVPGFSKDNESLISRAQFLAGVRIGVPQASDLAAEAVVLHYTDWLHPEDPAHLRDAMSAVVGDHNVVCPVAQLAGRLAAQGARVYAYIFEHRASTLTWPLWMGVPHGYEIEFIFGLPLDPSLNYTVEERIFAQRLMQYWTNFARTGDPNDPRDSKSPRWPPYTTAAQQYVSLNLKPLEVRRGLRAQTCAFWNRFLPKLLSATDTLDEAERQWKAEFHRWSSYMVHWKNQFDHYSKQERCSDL

[2] = target: T1, Acetylcholinesterase (Rattus norvegicus); experiment: Reactivation of 0.1 uM tabun-inhibited rat brain AchE
[3] = target: T1, Acetylcholinesterase (Rattus norvegicus); experiment: Reactivation of 0.1 uM paraoxon-inhibited rat brain AchE
[4] = target: T1, Acetylcholinesterase (Rattus norvegicus); experiment: Reactivation of 1 mM paraoxon-inhibited rat brain AchE

| SMILES | Activity [1] | Activity [2] | Activity [3] | Activity [4] |
| --- | --- | --- | --- | --- |
| O/N=C\c1cc[n+](C/C=C/C[n+]2cccc3ccccc32)cc1 | 0% | 0% | 15% | 0% |
| O=C(O)c1cc[n+](C/C=C/C[n+]2ccc(/C=N\O)cc2)cc1 | 11% | 3% | 15% | 63% |
| N#Cc1cc[n+](C/C=C/C[n+]2ccc(/C=N\O)cc2)cc1 | 0% | 0% | 28% | 54% |
| O/N=C\c1cc[n+](C/C=C/C[n+]2ccccc2)cc1 | 4% | 0% | 22% | 57% |
| O/N=C\c1cc[n+](C/C=C/C[n+]2ccccn2)cc1 | 0% | 0% | 23% | 35% |
| CC(=O)c1cc[n+](C/C=C/C[n+]2ccc(/C=N\O)cc2)cc1 | 11% | 2% | 36% | 68% |
| OCc1cc[n+](C/C=C/C[n+]2ccc(/C=N\O)cc2)cc1 | 2% | 0% | 42% | 50% |
| Cc1cc[n+](C/C=C/C[n+]2ccc(/C=N\O)cc2)cc1 | 0% | 0% | 26% | 61% |
| NC(=O)c1cc[n+](COC[n+]2ccccc2/C=N/O)cc1 | – | – | 0% | – |
| O/N=C\c1cc[n+](C/C=C/C[n+]2ccc3ccccc3c2)cc1 | 0% | 3% | 48% | 43% |
| CCOC(=O)c1cc[n+](C/C=C/C[n+]2ccc(/C=N\O)cc2)cc1 | 9% | 2% | 30% | 68% |
| N/C(=N\O)c1cc[n+](C/C=C/C[n+]2ccc(/C=N\O)cc2)cc1 | 14% | 9% | 32% | 52% |
| O/N=C\c1cc[n+](C/C=C/C[n+]2ccc(Cc3ccccc3)cc2)cc1 | 0% | 0% | 14% | 0% |
| O/N=C\c1cc[n+](C/C=C/C[n+]2ccc(/C=N/O)cc2)cc1 | 42% | 19% | – | – |
| CC(C)(C)c1cc[n+](C/C=C/C[n+]2ccc(/C=N\O)cc2)cc1 | 7% | 0% | 14% | 52% |
| O=C(O)CSc1cc[n+](C/C=C/C[n+]2ccc(/C=N\O)cc2)cc1 | 0% | 0% | 6% | 13% |
| O/N=C\c1cc[n+](C/C=C/C[n+]2ccc(-c3ccccc3)cc2)cc1 | 0% | 4% | 22% | 13% |

Reference: ChEMBL document CHEMBL1137446, “Monooxime reactivators of acetylcholinesterase with (E)-but-2-ene linker: preparation and reactivation of tabun- and paraoxon-inhibited acetylcholinesterase” (2007)
